Results published in PubChem BioAssay (NCI).
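Protocol summary: plate cells (96-well), add compound at 5 concentrations, incubate 48 h, interpolate endpoints linearly. GI50 is the concentration that inhibits growth by half. The concentration for full growth arrest is given as TGI.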

Tests used:
Assay in all cases: NCI-60 cell line screen, 48 h
HS 578T breast = system: HS 578T breast
786-0 renal = system: 786-0 renal
SK-MEL-2 melanoma = system: SK-MEL-2 melanoma
SF-295 CNS = system: SF-295 CNS
KM12 colon = system: KM12 colon
K-562 leukemia = system: K-562 leukemia
CAKI-1 renal = system: CAKI-1 renal
DU-145 prostate = system: DU-145 prostate
ACHN renal = system: ACHN renal
IGROV1 ovarian = system: IGROV1 ovarian
SNB-19 CNS = system: SNB-19 CNS
MDA-MB-435 = system: MDA-MB-435
SK-MEL-5 melanoma = system: SK-MEL-5 melanoma
HCC-2998 colon = system: HCC-2998 colon
HCT-116 colon = system: HCT-116 colon
UACC-62 melanoma = system: UACC-62 melanoma
PC-3 prostate = system: PC-3 prostate
HCT-15 colon = system: HCT-15 colon
HL-60(TB) leukemia = system: HL-60(TB) leukemia
OVCAR-4 ovarian = system: OVCAR-4 ovarian
NCI/ADR-RES ovarian = system: NCI/ADR-RES ovarian
SK-MEL-28 melanoma = system: SK-MEL-28 melanoma
M14 melanoma = system: M14 melanoma
TK-10 renal = system: TK-10 renal
RXF 393 renal = system: RXF 393 renal
OVCAR-3 ovarian = system: OVCAR-3 ovarian
A498 renal = system: A498 renal
NCI-H226 lung = system: NCI-H226 lung
SN12C renal = system: SN12C renal
SW-620 colon = system: SW-620 colon
OVCAR-5 ovarian = system: OVCAR-5 ovarian
SF-268 CNS = system: SF-268 CNS
HOP-92 NSCLC = system: HOP-92 NSCLC
SR leukemia = system: SR leukemia
NCI-H322M lung = system: NCI-H322M lung
CCRF-CEM leukemia = system: CCRF-CEM leukemia
T-47D breast = system: T-47D breast
BT-549 breast = system: BT-549 breast
MDA-MB-231 breast = system: MDA-MB-231 breast
UACC-257 melanoma = system: UACC-257 melanoma
HT29 colon = system: HT29 colon
UO-31 renal = system: UO-31 renal
EKVX NSCLC = system: EKVX NSCLC
U251 CNS = system: U251 CNS
HOP-62 NSCLC = system: HOP-62 NSCLC
NCI-H23 lung = system: NCI-H23 lung
MOLT-4 leukemia = system: MOLT-4 leukemia
MALME-3M melanoma = system: MALME-3M melanoma
NCI-H460 lung = system: NCI-H460 lung
LOX IMVI melanoma = system: LOX IMVI melanoma
A549 NSCLC = system: A549 NSCLC
MDA-N = system: MDA-N
NCI-H522 lung = system: NCI-H522 lung
OVCAR-8 ovarian = system: OVCAR-8 ovarian

O=C(O)C(O)c1ccc([As](=O)(O)O)cc1 (stereo not drawn)
GI50 (HS 578T breast): > 100 µM
TGI (HS 578T breast): > 100 µM
GI50 (786-0 renal): > 100 µM
TGI (786-0 renal): > 100 µM
GI50 (SK-MEL-2 melanoma): > 100 µM
TGI (SK-MEL-2 melanoma): > 100 µM
GI50 (SF-295 CNS): > 100 µM
TGI (SF-295 CNS): > 100 µM
GI50 (KM12 colon): > 100 µM
TGI (KM12 colon): > 100 µM
GI50 (K-562 leukemia): > 100 µM
TGI (K-562 leukemia): > 100 µM
GI50 (CAKI-1 renal): > 100 µM
TGI (CAKI-1 renal): > 100 µM
GI50 (DU-145 prostate): > 100 µM
TGI (DU-145 prostate): > 100 µM
GI50 (ACHN renal): > 100 µM
TGI (ACHN renal): > 100 µM
GI50 (IGROV1 ovarian): > 100 µM
TGI (IGROV1 ovarian): > 100 µM
GI50 (SNB-19 CNS): > 100 µM
TGI (SNB-19 CNS): > 100 µM
GI50 (MDA-MB-435): > 100 µM
TGI (MDA-MB-435): > 100 µM
GI50 (SK-MEL-5 melanoma): > 100 µM
TGI (SK-MEL-5 melanoma): > 100 µM
GI50 (HCC-2998 colon): > 100 µM
TGI (HCC-2998 colon): > 100 µM
GI50 (HCT-116 colon): > 100 µM
TGI (HCT-116 colon): > 100 µM
GI50 (UACC-62 melanoma): > 100 µM
TGI (UACC-62 melanoma): > 100 µM
GI50 (PC-3 prostate): > 100 µM
TGI (PC-3 prostate): > 100 µM
GI50 (HCT-15 colon): > 100 µM
TGI (HCT-15 colon): > 100 µM
GI50 (HL-60(TB) leukemia): > 100 µM
TGI (HL-60(TB) leukemia): > 100 µM
GI50 (OVCAR-4 ovarian): > 100 µM
TGI (OVCAR-4 ovarian): > 100 µM
GI50 (NCI/ADR-RES ovarian): > 100 µM
TGI (NCI/ADR-RES ovarian): > 100 µM
GI50 (SK-MEL-28 melanoma): > 100 µM
TGI (SK-MEL-28 melanoma): > 100 µM
GI50 (M14 melanoma): > 100 µM
TGI (M14 melanoma): > 100 µM
GI50 (TK-10 renal): > 100 µM
TGI (TK-10 renal): > 100 µM
GI50 (RXF 393 renal): > 100 µM
TGI (RXF 393 renal): > 100 µM
GI50 (OVCAR-3 ovarian): > 100 µM
TGI (OVCAR-3 ovarian): > 100 µM
GI50 (A498 renal): > 100 µM
TGI (A498 renal): > 100 µM
GI50 (NCI-H226 lung): > 100 µM
TGI (NCI-H226 lung): > 100 µM
GI50 (SN12C renal): > 100 µM
TGI (SN12C renal): > 100 µM
GI50 (SW-620 colon): > 100 µM
TGI (SW-620 colon): > 100 µM
GI50 (OVCAR-5 ovarian): > 100 µM
TGI (OVCAR-5 ovarian): > 100 µM
GI50 (SF-268 CNS): > 100 µM
TGI (SF-268 CNS): > 100 µM
GI50 (HOP-92 NSCLC): > 100 µM
TGI (HOP-92 NSCLC): > 100 µM
GI50 (SR leukemia): > 100 µM
TGI (SR leukemia): > 100 µM
GI50 (NCI-H322M lung): > 100 µM
TGI (NCI-H322M lung): > 100 µM
GI50 (CCRF-CEM leukemia): > 100 µM
TGI (CCRF-CEM leukemia): > 100 µM
GI50 (T-47D breast): > 100 µM
TGI (T-47D breast): > 100 µM
GI50 (BT-549 breast): > 100 µM
TGI (BT-549 breast): > 100 µM
GI50 (MDA-MB-231 breast): > 100 µM
TGI (MDA-MB-231 breast): > 100 µM
GI50 (UACC-257 melanoma): > 100 µM
TGI (UACC-257 melanoma): > 100 µM
GI50 (HT29 colon): > 100 µM
TGI (HT29 colon): > 100 µM
GI50 (UO-31 renal): > 100 µM
TGI (UO-31 renal): > 100 µM
GI50 (EKVX NSCLC): > 100 µM
TGI (EKVX NSCLC): > 100 µM
GI50 (U251 CNS): > 100 µM
TGI (U251 CNS): > 100 µM
GI50 (HOP-62 NSCLC): > 100 µM
TGI (HOP-62 NSCLC): > 100 µM
GI50 (NCI-H23 lung): > 100 µM
TGI (NCI-H23 lung): > 100 µM
GI50 (MOLT-4 leukemia): > 100 µM
TGI (MOLT-4 leukemia): > 100 µM
GI50 (MALME-3M melanoma): > 100 µM
TGI (MALME-3M melanoma): > 100 µM
GI50 (NCI-H460 lung): > 100 µM
TGI (NCI-H460 lung): > 100 µM
GI50 (LOX IMVI melanoma): > 100 µM
TGI (LOX IMVI melanoma): > 100 µM
GI50 (A549 NSCLC): > 100 µM
TGI (A549 NSCLC): > 100 µM
GI50 (MDA-N): > 100 µM
TGI (MDA-N): > 100 µM
GI50 (NCI-H522 lung): > 100 µM
TGI (NCI-H522 lung): > 100 µM
GI50 (OVCAR-8 ovarian): > 100 µM
TGI (OVCAR-8 ovarian): > 100 µM
